Experimental data: ChEMBL document CHEMBL1138095, “From ligand to complexes: inhibition of human immunodeficiency virus type 1 integrase by beta-diketo acid metal complexes” (J Med Chem, 2006)

Experiments:
[1] = target: T1, Human immunodeficiency virus type 1 integrase (Human immunodeficiency virus 1, UniProt Q7ZJM1); test: Inhibition of HIV1 integrase strand transfer activity
[2] = target: T1, Human immunodeficiency virus type 1 integrase; test: Inhibition of HIV1 integrase strand transfer activity in presence of exogenous cobalt ion
[3] = target: T1, Human immunodeficiency virus type 1 integrase; test: Inhibition of HIV1 integrase 3' processing activity
[4] = target: T1, Human immunodeficiency virus type 1 integrase; test: Inhibition of HIV1 integrase 3' processing activity in presence of exogenous cobalt ion

IC50 [1]: 69 µM | IC50 [2]: 80 µM | IC50 [3]: > 333 µM | IC50 [4]: 82 µM
Structure (SMILES): O=C(O)C(=O)/C=C(\O)c1ccccc1
